{
  "sequences": {"note": "Protein sequences, listed by entry. Tags and fused reporters are not part of them.", "UniProt P21453, whole entry": "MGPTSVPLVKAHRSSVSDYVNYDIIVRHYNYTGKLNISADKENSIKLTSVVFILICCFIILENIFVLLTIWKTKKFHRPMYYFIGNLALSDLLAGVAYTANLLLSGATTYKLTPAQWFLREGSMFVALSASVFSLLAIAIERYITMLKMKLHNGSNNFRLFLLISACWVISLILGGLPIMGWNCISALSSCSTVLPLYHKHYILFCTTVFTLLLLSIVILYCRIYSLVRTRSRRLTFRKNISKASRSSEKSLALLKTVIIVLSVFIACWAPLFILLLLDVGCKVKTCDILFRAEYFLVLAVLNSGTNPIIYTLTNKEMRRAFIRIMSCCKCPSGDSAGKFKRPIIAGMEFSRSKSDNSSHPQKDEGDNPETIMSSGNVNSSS", "UniProt Q99500, whole entry": "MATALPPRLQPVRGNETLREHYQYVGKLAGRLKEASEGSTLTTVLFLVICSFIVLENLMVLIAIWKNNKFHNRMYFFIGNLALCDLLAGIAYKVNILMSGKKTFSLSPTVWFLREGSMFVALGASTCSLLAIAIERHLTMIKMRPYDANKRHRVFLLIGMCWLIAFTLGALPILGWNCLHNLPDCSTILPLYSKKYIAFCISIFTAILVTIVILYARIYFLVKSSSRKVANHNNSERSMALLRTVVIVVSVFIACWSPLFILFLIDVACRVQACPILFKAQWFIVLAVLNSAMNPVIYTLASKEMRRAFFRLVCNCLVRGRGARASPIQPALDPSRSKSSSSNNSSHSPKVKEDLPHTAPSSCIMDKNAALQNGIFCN"},
  "source": "patent US9522888B2",
  "about": "“Substituted bicyclic compounds” (BRISTOL-MYERS SQUIBB COMPANY, priority 2014, dated 2016)",
  "key": {"[1]": {"biological_target": "human S1P1 (Homo sapiens (Human), UniProt P21453)", "test": "S1P1 binding assay (33P-S1P radioligand competition, CHO cell membranes)", "conditions": "read-out: S1P1 Binding; phosphate examples"}, "[2]": {"biological_target": "S1P1 (membranes prepared from S1P1/CHO cells) (Homo sapiens (Human), UniProt P21453)", "test": "Receptor [35S] GTPγS binding assay (S1P1 GTPγS)", "format": "biochemical", "conditions": "read-out: S1P1 GTPγS; phosphate examples"}, "[3]": {"biological_target": "S1P3 (membranes prepared from EDG3-Gal5-bla HEK293T cells) (Homo sapiens (Human), UniProt Q99500)", "test": "Receptor [35S] GTPγS binding assay (S1P3 GTPγS)", "conditions": "read-out: S1P3 GTPγS; phosphate examples"}, "[4]": {"biological_target": "hS1P1/CHO cells (Homo sapiens (Human), UniProt P21453)", "test": "hS1P1 ERK phosphorylation (S1P1 pERK)", "conditions": "read-out: S1P1 pERK; phosphate examples"}},
  "data": [
    {"smiles": "[2H]C1([2H])C(/C=C/CCCC)=Cc2ccc([C@H]3CC[C@](N)(COP(=O)(O)O)C3)cc2C1([2H])[2H]", "values": [
      {"measurement": "IC50", "setting": "[1]", "value": "10 to 100", "unit": "nM"},
      {"measurement": "EC50", "setting": "[2]", "value": "100 to 1000", "unit": "nM"},
      {"measurement": "EC50", "setting": "[3]", "value": "> 625", "unit": "nM"},
      {"measurement": "EC50", "setting": "[4]", "value": "10 to 100", "unit": "nM"}
    ]}
  ]
}
